Earlier results on one molecule are cited in US20240245780A1, “PHARMACEUTICAL COMPOSITIONS CONTAINING STABLE AMORPHOUS SOLID SOLUTIONS AND DISPERSIONS” (Eastman Chemical Company, priority 2021, published 2024).

The conditions of this data set: cited from earlier work.

On to `O=C1CCc2ccc(OCCCCN3CCN(c4cccc(Cl)c4Cl)CC3)cc2N1` [Aripiprazole], for which the pKa is recorded as 8.
